Test results published in PubChem BioAssay (NCI).
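Exposure lasted 48 hours, with cells grown in 96-well plates and compounds tested at five concentrations. TGI marks complete inhibition of growth.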

How the values were obtained:
Experiment in all cases: inhibition of tumour cell growth, NCI panel, 48 h
HCT-116 colon = system: HCT-116 colon
HCT-15 colon = system: HCT-15 colon
M19-MEL melanoma = system: M19-MEL melanoma
LOX IMVI melanoma = system: LOX IMVI melanoma
NCI-H322M lung = system: NCI-H322M lung
HOP-92 NSCLC = system: HOP-92 NSCLC
KM20L2 colon = system: KM20L2 colon
DMS 114 small cell lung = system: DMS 114 small cell lung
HCC-2998 colon = system: HCC-2998 colon
NCI-H226 lung = system: NCI-H226 lung
U251 CNS = system: U251 CNS
SK-OV-3 ovarian = system: SK-OV-3 ovarian
SR leukemia = system: SR leukemia
NCI-H460 lung = system: NCI-H460 lung
UACC-257 melanoma = system: UACC-257 melanoma
SF-268 CNS = system: SF-268 CNS
SK-MEL-28 melanoma = system: SK-MEL-28 melanoma
HOP-62 NSCLC = system: HOP-62 NSCLC
OVCAR-8 ovarian = system: OVCAR-8 ovarian
EKVX NSCLC = system: EKVX NSCLC
NCI-H23 lung = system: NCI-H23 lung
IGROV1 ovarian = system: IGROV1 ovarian
SF-539 CNS = system: SF-539 CNS
SNB-75 CNS = system: SNB-75 CNS
COLO 205 colon = system: COLO 205 colon
UACC-62 melanoma = system: UACC-62 melanoma
SF-295 CNS = system: SF-295 CNS
SNB-78 CNS = system: SNB-78 CNS
KM12 colon = system: KM12 colon
SNB-19 CNS = system: SNB-19 CNS
RXF 393 renal = system: RXF 393 renal
XF 498 CNS = system: XF 498 CNS
TK-10 renal = system: TK-10 renal
OVCAR-5 ovarian = system: OVCAR-5 ovarian
UO-31 renal = system: UO-31 renal
MOLT-4 leukemia = system: MOLT-4 leukemia
OVCAR-4 ovarian = system: OVCAR-4 ovarian
SN12C renal = system: SN12C renal
DLD-1 colon = system: DLD-1 colon
CAKI-1 renal = system: CAKI-1 renal
SK-MEL-5 melanoma = system: SK-MEL-5 melanoma
RPMI-8226 leukemia = system: RPMI-8226 leukemia
SW-620 colon = system: SW-620 colon
A549 NSCLC = system: A549 NSCLC
A498 renal = system: A498 renal
ACHN renal = system: ACHN renal
HT29 colon = system: HT29 colon

Measured: TGI

COc1ccc2c3c1O[C@@]1(C)[C@]4(OC)C=CC5(C[C@@H]4C(C)(C)O)C(C2)N(C)CC[C@@]351
> 100 µM: all assays above
